{
  "source": "patent US20190160257A1",
  "about": "“METHODS AND SYSTEMS FOR INHIBITING VASCULAR INFLAMMATION” (Mercator MedSystems, Inc., priority 2002, published 2019)",
  "settings": "pig, in vivo",
  "data": [
    {"substance": "Oregon Green® 488 paclitaxel [OGP]", "values": [
      {"measurement": "longitudinal extension (mean)", "value": 27.5, "unit": "mm"},
      {"measurement": "longitudinal extension (range)", "value": "23-32 mm"}
    ]}
  ]
}
